Experiments:
[1] = molecular target: purified human Factor XIa (Homo sapiens (Human), UniProt P03951); assay: Factor XIa Assay; assay type: biochemical; settings: read-out: Human FXIa Ki; purified human Factor XIa 40 pM; substrate Z-Gly-Pro-Arg-AFC 100 μM; 50 mM HEPES pH 7.4
[2] = molecular target: purified Human plasma Kallikrein (Homo sapiens (Human), UniProt P03952); assay: Kallikrein Assay; assay type: biochemical; settings: read-out: Human plasma Kallikrein Ki; purified Human plasma Kallikrein 0.5 nM; substrate Acetyl-K-P-R-AFC; 50 mM HEPES pH 7.4; Ki from IC50 by Cheng Prusoff

The chains behind the UniProt entries cited, without tags or fusion partners. Residues count along the entry.
UniProt P03951, 388-625 limits assumed: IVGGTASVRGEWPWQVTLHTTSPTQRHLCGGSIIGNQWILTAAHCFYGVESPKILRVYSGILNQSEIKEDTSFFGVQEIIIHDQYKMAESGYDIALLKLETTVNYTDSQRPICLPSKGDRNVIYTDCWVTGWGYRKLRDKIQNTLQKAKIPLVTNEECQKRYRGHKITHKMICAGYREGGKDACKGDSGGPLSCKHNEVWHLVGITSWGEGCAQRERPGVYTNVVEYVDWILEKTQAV
UniProt P03951, 19-387 partner limits assumed: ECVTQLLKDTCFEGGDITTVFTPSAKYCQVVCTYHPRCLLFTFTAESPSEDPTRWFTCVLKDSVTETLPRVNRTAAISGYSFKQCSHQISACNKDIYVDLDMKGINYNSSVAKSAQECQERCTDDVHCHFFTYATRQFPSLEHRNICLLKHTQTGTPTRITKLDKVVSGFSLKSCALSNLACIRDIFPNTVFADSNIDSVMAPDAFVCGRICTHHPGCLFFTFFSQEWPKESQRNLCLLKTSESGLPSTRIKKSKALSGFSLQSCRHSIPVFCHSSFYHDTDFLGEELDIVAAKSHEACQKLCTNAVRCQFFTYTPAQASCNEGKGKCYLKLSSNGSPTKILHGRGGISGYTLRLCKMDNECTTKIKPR
UniProt P03952, 391-638 limits assumed: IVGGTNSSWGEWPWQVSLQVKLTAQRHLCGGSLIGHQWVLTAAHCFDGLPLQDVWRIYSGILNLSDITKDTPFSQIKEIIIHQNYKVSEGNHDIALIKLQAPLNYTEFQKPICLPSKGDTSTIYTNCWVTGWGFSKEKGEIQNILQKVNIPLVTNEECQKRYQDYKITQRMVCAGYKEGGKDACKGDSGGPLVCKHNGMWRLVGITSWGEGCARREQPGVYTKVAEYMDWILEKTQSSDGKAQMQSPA
UniProt P03952, 20-390 partner limits assumed: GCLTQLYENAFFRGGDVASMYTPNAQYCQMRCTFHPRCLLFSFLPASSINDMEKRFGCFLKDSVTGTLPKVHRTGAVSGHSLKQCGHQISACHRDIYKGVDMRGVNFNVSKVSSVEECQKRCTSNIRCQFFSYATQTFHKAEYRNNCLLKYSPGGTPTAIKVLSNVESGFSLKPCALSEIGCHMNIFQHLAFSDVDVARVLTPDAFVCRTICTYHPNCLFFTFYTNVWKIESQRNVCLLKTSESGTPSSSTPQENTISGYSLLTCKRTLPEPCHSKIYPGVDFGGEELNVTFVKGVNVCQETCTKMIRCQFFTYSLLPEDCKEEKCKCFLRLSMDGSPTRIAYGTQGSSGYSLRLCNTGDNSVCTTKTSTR

| Compound | Ki [1] | Ki [2] |
| --- | --- | --- |
| COC(=O)Nc1ccc2c(c1)NC(=O)CCCC[C@H](c1ccc(-c3c(F)ccc(F)c3F)c[n+]1[O-])c1nc-2c(C)[nH]1 | 0.27 nM | 0.78 nM |
| COC(=O)Nc1ccc2c(c1)NC(=O)CCCC[C@H](c1ccc(-c3c(F)cccc3C(F)F)c[n+]1[O-])c1nc-2c(C)[nH]1 | 0.11 nM | 0.43 nM |

From patent publication US10214512B2, “Factor XIA inhibitors” (MERCK SHARP & DOHME CORP., priority 2015, dated 2019)
